Test results reported in ChEMBL document CHEMBL4387703, “Lead optimization and biological evaluation of fragment-based cN-II inhibitors” (Eur J Med Chem, 2019).

Legend:
Conditions in all cases: Homo sapiens
[1] = compound: O=C(O)Cn1cnc2c(NC(=O)c3cccc(-c4ccccc4)c3)ncnc21; experiment: (§1) Noncompetitive inhibition of recombinant cN-II (unknown origin) assessed as substrate Kcat using varying level of IMP as substrate by HPLC method based Lineweaver-Burk plot analysis
Outline: (§2)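 Enzyme, alone or with compound, was mixed with IMP (0.2 to 3 mM) under stirring at 37 °C in imidazole pH 6.5/NaCl/MgCl2 buffer. Samples were taken every 7 s and quenched with 10% perchloric acid. IMP and inosine were quantified by SAX HPLC in 10 mM ammonium phosphate pH 5.5. Data were fitted to competitive, non-competitive, uncompetitive or mixed inhibition equations.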

[2] = compound: CCOP(=O)(O)Cn1cnc(-c2cccc(-c3cccc(C(=O)Nc4ncnc5nc[nH]c45)c3)c2)c1; experiment: as §1; outline: as §2
[3] = compound: O=C(Nc1ncnc2[nH]cnc12)c1cccc(-c2ccccc2)c1; experiment: as §1; outline: as §2
[4] = compound: O=C(O)Cn1cnc2c(NC(=O)c3cccc(-c4ccccc4)c3)ncnc21; experiment: (§3) Competitive inhibition of recombinant cN-II (unknown origin) using varying level of IMP as substrate assessed as substrate Km by HPLC method based Lineweaver-Burk plot analysis; outline: as §2
[5] = compound: CCOP(=O)(O)Cn1cnc(-c2cccc(-c3cccc(C(=O)Nc4ncnc5nc[nH]c45)c3)c2)c1; experiment: as §3; outline: as §2
[6] = compound: O=C(Nc1ncnc2[nH]cnc12)c1cccc(-c2ccccc2)c1; experiment: as §3; outline: as §2
[7] = compound: O=C(O)Cn1cnc2c(NC(=O)c3cccc(-c4ccccc4)c3)ncnc21; experiment: (§4) Competitive inhibition of recombinant cN-II (unknown origin) using varying level of IMP as substrate assessed as substrate Kcat by HPLC method based Lineweaver-Burk plot analysis; outline: as §2
[8] = compound: CCOP(=O)(O)Cn1cnc(-c2cccc(-c3cccc(C(=O)Nc4ncnc5nc[nH]c45)c3)c2)c1; experiment: as §4; outline: as §2
[9] = compound: O=C(Nc1ncnc2[nH]cnc12)c1cccc(-c2ccccc2)c1; experiment: as §4; outline: as §2
[10] = compound: O=C(O)Cn1cnc2c(NC(=O)c3cccc(-c4ccccc4)c3)ncnc21; experiment: (§5) Noncompetitive inhibition of recombinant cN-II (unknown origin) assessed as substrate Km using varying level of IMP as substrate by HPLC method based Lineweaver-Burk plot analysis; outline: as §2
[11] = compound: CCOP(=O)(O)Cn1cnc(-c2cccc(-c3cccc(C(=O)Nc4ncnc5nc[nH]c45)c3)c2)c1; experiment: as §5; outline: as §2
[12] = compound: O=C(Nc1ncnc2[nH]cnc12)c1cccc(-c2ccccc2)c1; experiment: as §5; outline: as §2
[13] = compound: O=C(O)Cn1cnc2c(NC(=O)c3cccc(-c4ccccc4)c3)ncnc21; experiment: (§6) Mixed type inhibition of recombinant cN-II (unknown origin) assessed as substrate Km using varying level of IMP as substrate by HPLC method based Lineweaver-Burk plot analysis; outline: as §2
[14] = compound: CCOP(=O)(O)Cn1cnc(-c2cccc(-c3cccc(C(=O)Nc4ncnc5nc[nH]c45)c3)c2)c1; experiment: as §6; outline: as §2
[15] = compound: O=C(Nc1ncnc2[nH]cnc12)c1cccc(-c2ccccc2)c1; experiment: as §6; outline: as §2
[16] = compound: O=C(O)Cn1cnc2c(NC(=O)c3cccc(-c4ccccc4)c3)ncnc21; experiment: (§7) Uncompetitive inhibition of recombinant cN-II (unknown origin) assessed as substrate Km using varying level of IMP as substrate by HPLC method based Lineweaver-Burk plot analysis; outline: as §2
[17] = compound: CCOP(=O)(O)Cn1cnc(-c2cccc(-c3cccc(C(=O)Nc4ncnc5nc[nH]c45)c3)c2)c1; experiment: as §7; outline: as §2
[18] = compound: O=C(Nc1ncnc2[nH]cnc12)c1cccc(-c2ccccc2)c1; experiment: as §7; outline: as §2
[19] = compound: O=C(O)Cn1cnc2c(NC(=O)c3cccc(-c4ccccc4)c3)ncnc21; experiment: (§8) Uncompetitive inhibition of recombinant cN-II (unknown origin) assessed as substrate Kcat using varying level of IMP as substrate by HPLC method based Lineweaver-Burk plot analysis; outline: as §2
[20] = compound: CCOP(=O)(O)Cn1cnc(-c2cccc(-c3cccc(C(=O)Nc4ncnc5nc[nH]c45)c3)c2)c1; experiment: as §8; outline: as §2
[21] = compound: O=C(Nc1ncnc2[nH]cnc12)c1cccc(-c2ccccc2)c1; experiment: as §8; outline: as §2
[22] = compound: O=C(O)Cn1cnc2c(NC(=O)c3cccc(-c4ccccc4)c3)ncnc21; experiment: (§9) Mixed type inhibition of recombinant cN-II (unknown origin) assessed as substrate Kcat using varying level of IMP as substrate by HPLC method based Lineweaver-Burk plot analysis; outline: as §2
[23] = compound: CCOP(=O)(O)Cn1cnc(-c2cccc(-c3cccc(C(=O)Nc4ncnc5nc[nH]c45)c3)c2)c1; experiment: as §9; outline: as §2
[24] = compound: O=C(Nc1ncnc2[nH]cnc12)c1cccc(-c2ccccc2)c1; experiment: as §9; outline: as §2

B1: 5'-nucleotidase (Homo sapiens), P21589 (protein)
chain: MCPRAARAPATLLLALGAVLWPAAGAWELTILHTNDVHSRLEQTSEDSSKCVNASRCMGGVARLFTKVQQIRRAEPNVLLLDAGDQYQGTIWFTVYKGAEVAHFMNALRYDAMALGNHEFDNGVEGLIEPLLKEAKFPILSANIKAKGPLASQISGLYLPYKVLPVGDEVVGIVGYTSKETPFLSNPGTNLVFEDEITALQPEVDKLKTLNVNKIIALGHSGFEMDKLIAQKVRGVDVVVGGHSNTFLYTGNPPSKEVPAGKYPFIVTSDDGRKVPVVQAYAFGKYLGYLKIEFDERGNVISSHGNPILLNSSIPEDPSIKADINKWRIKLDNYSTQELGKTIVYLDGSSQSCRFRECNMGNLICDAMINNNLRHTDEMFWNHVSMCILNGGGIRSPIDERNNGTITWENLAAVLPFGGTFDLVQLKGSTLKKAFEHSVHRYGQSTGEFLQVGGIHVVYDLSRKPGDRVVKLDVLCTKCRVPSYDPLKMDEVYKVILPNFLANGGDGFQMIKDELLRHDSGDQDINVVSTYISKMKVIYPAVEGRIKFSTGSHCHGSFSLIFLSLWAVIFVLYQ
In the case of B1, the kcat [1] is reported as 47.4 s⁻¹, the kcat [2] is reported as 49.7 s⁻¹ and the kcat [3] is reported as 51.4 s⁻¹. For the same protein, the Km [4] was 790 µM, the Km [5] was 651 µM and the Km [6] was 448 µM. For the same protein, the kcat [7] was 43.3 s⁻¹, the kcat [8] was 45.1 s⁻¹ and the kcat [9] was 47.3 s⁻¹. The Km [10] was 999 µM, the Km [11] was 870 µM and the Km [12] was 584 µM. For the same protein, the Km [13] was 821 µM, the Km [14] was 639 µM and the Km [15] was 506 µM. It also gave a Km [16] of 1150 µM, a Km [17] of 982 µM and a Km [18] of 657 µM. For the same protein, the kcat [19] was 49.4 s⁻¹, the kcat [20] was 51.2 s⁻¹ and the kcat [21] was 52.9 s⁻¹. The kcat [22] was 44.1 s⁻¹, the kcat [23] was 44.8 s⁻¹ and the kcat [24] was 49.3 s⁻¹.
